# Columns and labels:
# [1] = system: CXF533 patient-derived colorectal cancer model; test: Xenograft anti-tumor efficacy; type: in vivo, mice; conditions: tumor weight, TPP-2090 10 mg/kg twice weekly for 4 weeks
# Description: (§1) After tumor growth to a size of approximately 40 mm^2 mice were randomized into control and treatment groups with a respective group size of n=8-10. Mice were treated with various doses of anti-TWEAKR antibodies diluted in PBS by intravenous injection (i.v.) into the tail vein with a twice per week schedule (q4dx3: applications twice per week, three applications in total; q4dx8: applications twice per week, eight applications in total). Combination therapy partners such as Regorafenib (10 mg/kg daily, per os) and the PI3K-inhibitor 1 (10 mg/kg, BID, 2d on, 5d off (applications twice daily on two consecutive days, followed by five days without treatment), i.v.) were diluted in their respective formulations whereas the standard of care therapies Irinotecan (5 mg/kg, 4d on, 3d off (applications once daily on four consecutive days followed by three days without treatment) i.v.) and Paclitaxel (16 mg/kg, q7dx4 (applications once per week, four applications in total), i.v.) were diluted in 0.9% NaCl. Animals injected with PBS served as the control (vehicle) group. The applied volume of the compounds was 5 ml/kg body weight per mouse.
# (§2) Tumor growth was monitored 2-3 times per week by caliper measurement (length×width in mm) as well as body weight (in g). […]
# [2] = system: Co5676 patient-derived colorectal cancer model; test: Xenograft anti-tumor efficacy; type: in vivo, mice; conditions: tumor area, TPP-2090 10 mg/kg twice weekly for 4 weeks
# Description: as §1, §2
substance,measurement,setting,value
"Cetuximab: standard of care antibody, EGFR (HER1) inhibitor",Final T/C,[1],1.53
same,Final T/C,[2],0.22
